We go through one molecule from patent US20020049193A1, “N-linked sulfonamides of heterocyclic thioesters” (GPI NIL HOLDINGS, INC., priority 1996, published 2002).

Chains of the proteins cited; added tags and fusions are not shown.
UniProt P62942, whole entry: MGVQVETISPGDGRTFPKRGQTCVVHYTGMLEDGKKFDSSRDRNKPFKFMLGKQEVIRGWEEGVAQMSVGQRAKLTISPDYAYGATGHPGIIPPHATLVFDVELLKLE

One test deals with FKBP12 (Homo sapiens, UniProt P62942). Description: Ki test procedure: inhibition of peptidyl-prolyl isomerase (rotamase) activity, chymotrypsin-coupled assay. It counts as biochemical. Conditions: read-out: Kl, apparent Ki, ranked potency.
Test [1] concerns chick dorsal root ganglia. Nature of the test: Chick dorsal root ganglion cultures and neurite outgrowth. In kind it is cell-based. Conditions: read-out: ED50; neurite outgrowth in chick DRG explants, 48 hours after drug treatment, ranked potency.

Bounds are passed on as bounds.

On to `Cc1ccc(S(=O)(=O)N2CCCC2C(=O)SCCC(c2ccccc2)c2ccccc2)cc1` (centres unmarked), for which the Ki at FKBP12 is 1 to 50 nM. In addition, the EC50 in test [1] is less than 1 nM.
